# Binding of CDR-mutated scFvs to a peptide of the spike HR2 region

The target is the same throughout: PDVDLGDISGINAS, from the HR2 region of SARS-CoV-2 spike.

Each scFv is VH, a (GGGGS)3 linker, VL, as in the parent Ab-14, and differs from it in the CDRs of the light chain only.
VH: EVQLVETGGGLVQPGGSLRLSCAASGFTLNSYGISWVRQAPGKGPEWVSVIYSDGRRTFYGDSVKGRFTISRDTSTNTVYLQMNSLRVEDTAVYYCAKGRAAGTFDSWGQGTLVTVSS
VL: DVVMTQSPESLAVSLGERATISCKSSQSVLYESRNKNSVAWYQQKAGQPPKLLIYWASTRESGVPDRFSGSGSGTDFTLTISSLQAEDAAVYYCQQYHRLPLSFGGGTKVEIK

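Phage display of a naive human antibody library on the peptide gave the parent. These sequences belong to a second round, designed from the earlier measurements on random variants of the parent. Their group label is 14L_En_Gen (En: ensemble of fine-tuned language models; Gen: genetic algorithm). AlphaSeq pools MATa yeast showing the antibodies with MATalpha yeast showing the peptide. The frequency of each diploid, read from paired DNA barcodes, reflects how well the two displayed proteins bind. Each replicate has its own calibration line, from reference interactions of the BCL2 family. Mating was done six times.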

Each variant is given by its three light chain CDRs, as the data file delimits them; those of the parent are KSSQSVLYESRNKNSVA, WASTRES, QQYHRLPLS.
The read-out is the apparent dissociation constant on a log10 scale (nM): the lower, the stronger.
"nd" means that the variant was in the library but no mating with the target was seen in that replicate; the authors take this as a sign of poor binding, and no number exists.

{"CDR-L1": "TIGGTLMFGSRNRSNVA", "CDR-L2": "EVSERLN", "CDR-L3": "QQYDRLPLF", "replicates, log10 nM": "2.77 1.65 2.06 1.56 2.17 1.96", "signal with controls": "1 of 18 (2.66)"}
{"CDR-L1": "MISQLSNMGQFAINSVA", "CDR-L2": "QASLRND", "CDR-L3": "QQYDRLPLV", "replicates, log10 nM": "1.26 1.14 1.12 0.91 1.41 1.38", "signal with controls": "1 of 18 (2.49)"}
{"CDR-L1": "KLVNFMNRGTHHTSNIA", "CDR-L2": "DAQNRSD", "CDR-L3": "QQYYRLPLA", "replicates, log10 nM": "0.30 0.24 0.08 -0.07 -0.05 0.26", "signal with controls": "1 of 18 (2.44)"}
{"CDR-L1": "MISQLYNMGQFAINSVA", "CDR-L2": "QASVRNE", "CDR-L3": "QQYDRLPLI", "replicates, log10 nM": "2.33 2.50 2.29 1.96 nd nd", "signal with controls": "0 of 18"}
{"CDR-L1": "KITQTMRFEQKASNNIA", "CDR-L2": "EVTLRSN", "CDR-L3": "QQYYRLPLS", "replicates, log10 nM": "1.07 1.44 1.30 1.24 1.23 1.51", "signal with controls": "2 of 18 (2.99)"}
{"CDR-L1": "SIGGFMKSLSAHMNSVA", "CDR-L2": "DMTNRED", "CDR-L3": "QQYDRLPLS", "replicates, log10 nM": "0.63 0.32 0.40 0.32 0.35 0.55", "signal with controls": "1 of 18 (2.28)"}
{"CDR-L1": "TIGMFMDNLMSNRNNVA", "CDR-L2": "DTSTLGD", "CDR-L3": "QSYDRLPLS", "replicates, log10 nM": "1.77 1.89 1.85 0.74 1.45 2.27", "signal with controls": "0 of 18"}
{"CDR-L1": "KIGATLNMMSHKKNNVA", "CDR-L2": "DLVTREN", "CDR-L3": "QQYHRLPLS", "replicates, log10 nM": "1.64 0.52 0.79 0.56 0.61 0.64", "signal with controls": "1 of 18 (1.74)"}
{"CDR-L1": "HITYGMQVAGRHSKSIA", "CDR-L2": "QAETREK", "CDR-L3": "QQYDRLPLS", "replicates, log10 nM": "0.61 0.53 0.49 0.38 0.59 0.60", "signal with controls": "2 of 18 (3.26)"}
{"CDR-L1": "KISQMVRVGSTVKNSIA", "CDR-L2": "EEQTRAK", "CDR-L3": "QQYHRLPLA", "replicates, log10 nM": "nd 1.42 nd 1.92 1.95 1.34", "signal with controls": "1 of 18 (1.90)"}
{"CDR-L1": "KIGMTLNQLMHKKNNVA", "CDR-L2": "DLVTREN", "CDR-L3": "QQYYRLPLS", "replicates, log10 nM": "0.52 0.22 0.03 0.34 0.22 0.13", "signal with controls": "2 of 18 (2.39)"}
{"CDR-L1": "HMSAVTLMGQRHVNSVA", "CDR-L2": "QMTTREN", "CDR-L3": "QQYDRLPLA", "replicates, log10 nM": "0.32 0.45 0.29 0.29 0.50 0.64", "signal with controls": "0 of 18"}
{"CDR-L1": "QLSMVTGHMSVSKNNVA", "CDR-L2": "EMETRVN", "CDR-L3": "QQYDRLPLS", "replicates, log10 nM": "1.01 0.55 0.72 0.53 0.53 0.41", "signal with controls": "0 of 18"}
{"CDR-L1": "TISQMTSWMSNKKNNVA", "CDR-L2": "EVSLREE", "CDR-L3": "QQYDRLPLS", "replicates, log10 nM": "0.93 0.75 0.83 0.63 0.58 0.57", "signal with controls": "3 of 18 (2.53)"}
{"CDR-L1": "KISQMVRVGSTHNNSIA", "CDR-L2": "EEQTRAK", "CDR-L3": "QQYHRLPLS", "replicates, log10 nM": "1.47 1.16 1.35 1.57 0.96 1.82", "signal with controls": "1 of 18 (1.60)"}
{"CDR-L1": "KIGATLNTLYEKKNNVA", "CDR-L2": "DLVEREN", "CDR-L3": "QQYFRLPLS", "replicates, log10 nM": "1.71 nd nd 0.37 nd 2.25", "signal with controls": "0 of 18"}
{"CDR-L1": "KVSEFMRGLMSKKDSIA", "CDR-L2": "DMVTRSN", "CDR-L3": "QQYDRLPLS", "replicates, log10 nM": "0.57 0.50 0.24 0.32 0.50 0.65", "signal with controls": "1 of 18 (2.46)"}
{"CDR-L1": "MVYQAAMMGGVARNSIA", "CDR-L2": "NATMRPD", "CDR-L3": "QQYHRLPLE", "replicates, log10 nM": "0.98 0.47 1.27 1.00 1.29 1.23", "signal with controls": "0 of 18"}
{"CDR-L1": "SVSGFMKTLSAHRNSVA", "CDR-L2": "DMTNRED", "CDR-L3": "QQYDRLPLS", "replicates, log10 nM": "0.48 0.34 0.30 0.13 0.32 0.16", "signal with controls": "3 of 18 (2.99)"}
{"CDR-L1": "TISQMTSLFSQSINNVA", "CDR-L2": "EVSMRES", "CDR-L3": "QQYDRLPLT", "replicates, log10 nM": "1.08 0.43 0.93 0.68 0.66 0.98", "signal with controls": "0 of 18"}
{"CDR-L1": "MIYGAQRELGAMANSIA", "CDR-L2": "DNVTRYD", "CDR-L3": "QQYERLPLS", "replicates, log10 nM": "nd nd nd nd nd 2.28", "signal with controls": "0 of 18"}
{"CDR-L1": "HMSAVTMLGSRNRNSVA", "CDR-L2": "QMTTREN", "CDR-L3": "QQYDRLPLA", "replicates, log10 nM": "nd nd nd nd nd nd", "signal with controls": "0 of 18"}
{"CDR-L1": "TISSVMNHMTRIDNNVA", "CDR-L2": "NQDMREN", "CDR-L3": "QQYDRLPLS", "replicates, log10 nM": "1.35 1.76 2.10 1.20 1.44 2.11", "signal with controls": "1 of 18 (2.19)"}

In the paper, a design with two or fewer of six values counts as a poor binder.
Empty control strains, which show no peptide, gave a signal in 4% of pairings with all light chain designs; the median was 2.64 and 95% of these signals were weaker than 1.59. No background was subtracted. For each scFv, signals with the empty controls are counted beside the result, with their mean in brackets.
A sequence measured in both rounds can read differently, since the two assays cover different ranges.

From the AlphaSeq antibody data of Li et al. 2023 (doi:10.1038/s41467-023-39022-2), copy in the FLAb collection.